{
  "sequences": {"note": "The chains behind the UniProt entries cited, without tags or fusion partners.", "UniProt P62937, whole entry": "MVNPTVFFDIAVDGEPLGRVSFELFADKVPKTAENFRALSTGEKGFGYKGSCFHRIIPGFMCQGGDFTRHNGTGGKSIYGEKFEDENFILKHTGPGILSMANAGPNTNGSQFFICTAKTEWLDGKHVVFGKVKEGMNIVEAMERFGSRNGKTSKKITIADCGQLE"},
  "source": "ChEMBL document CHEMBL1152440",
  "about": "“Discovering potent small molecule inhibitors of cyclophilin A using de novo drug design approach” (J Med Chem, 2009)",
  "data": [
    {"biological_target": "Peptidyl-prolyl cis-trans isomerase A (Homo sapiens, UniProt P62937)", "units": {"IC50": "nM"}, "values": [
      {"smiles": "O=C(NC(=O)c1c(F)cccc1Cl)NC1c2ccccc2-c2ccccc21", "IC50": 1.52},
      {"smiles": "O=C(NC(=O)c1ccccc1Cl)NC1c2ccccc2-c2ccccc21", "IC50": 103},
      {"smiles": "O=C(NC(=O)c1c(O)cccc1O)NC1CCc2ccccc21", "note": "(stereo unspecified)", "IC50": "> 10000"},
      {"smiles": "CSc1cccc(F)c1C(=O)NC(=O)NC1c2ccccc2-c2ccccc21", "IC50": 1910},
      {"smiles": "O=C(NC(=O)c1c(Cl)cccc1Cl)NC1c2ccccc2-c2ccccc21", "IC50": 2.59},
      {"smiles": "O=C(NC(=O)c1c(O)cccc1O)Nc1cccc2ccccc12", "IC50": "> 10000"}
    ]}
  ]
}
